Assay results reported in patent US8809377B2, “Deubiquitinase inhibitors and methods for use of the same” (The Regents of the University of Michigan, priority 2010, dated 2014).

How the values were obtained:
RAW 264.7 cells [1] = conditions: mouse
Listeria monocytogenes = Listeria monocytogenes infection of macrophages, CFU
HG23 cells = assay: Cell cytotoxicity assay kit
RAW 264.7 cells [2] = assay: cells; conditions: Mus musculus, RAW264.7, 12 h, read-out: IC50 for viability
Z138 = assay: MTT cell growth, survival and apoptosis; conditions: Z138 cells, 0.3-5 μM, 1 mM DTT
[3] = system: BaF3 cell lines expressing WT and T315I variants of Bcr-Abl; assay: Apoptosis / MTT in Bcr-Abl transformed BaF3 cells

Compound | Cell viability (WST-1) (RAW 264.7 cells [1]) | Colony forming units (CFUs) normalized to vehicle control (Listeria monocytogenes; RAW 264.7, pre-treatment with 5 μM, eight hours post-infection) | Colony forming units (CFUs) normalized to vehicle control (Listeria monocytogenes; RAW 264.7, treatment 1 hour postinfection) | concentrations with compound associated cytotoxicity (HG23 cells) | IC50 (RAW 264.7 cells [2]) [µM] | compound-induced apoptosis and anti-proliferative effects in the presence of DTT (Z138) | sensitivity to compound-mediated apoptosis [3]
C[C@H](NC(=O)/C(C#N)=C/c1ccc(O)c([N+](=O)[O-])c1)c1ccccc1 [WP1052] | above 80% | – | – | – | – | – | –
C[C@H](NC(=O)/C(C#N)=C/c1ccc([N+](=O)[O-])c(O)c1)c1ccccc1 [WP1051] | above 80% | – | – | – | – | – | –
CCC[C@H](NC(=O)/C(C#N)=C/c1cccc(Br)n1)c1ccccc1 [WP1130] | above 80% | Significantly fewer bacteria | did not lead to a decrease | higher than 10 μM | 7.6 | complete loss | high sensitivity
